Measured values taken from patent US8951752B2, “N-demethyase genes and uses thereof” (priority 2011, dated 2015).

System: Pseudomonas sp. CBB1

Cn1c(=O)c2c(ncn2C)n(C)c1=O [Caffeine, 1,3,7-trimethylxanthine] was tested, and the caffeine degradation (black tea extract) was “About 40%”, the “period of caffeine degradation” value (black tea extract, 8.3 mM caffeine, OD600 20) was 250 min and the “time to complete caffeine degradation” value (control solution, 8.3 mM caffeine in KPi buffer) was “less than 100 minutes”.
